Experiment [1] has as its target [3H]Dopamine reuptake in rat brain tissue (Rattus norvegicus, UniProt P23977). The experiment in a line: biochemical.
Experiment [2] addresses T1, [3H]Noradenaline reuptake in rat brain tissue (Rattus norvegicus).
T1 construct: in rat brain tissue; from tissue; host or cells: rat brain tissue
In words: in vitro [3H]noradrenaline reuptake inhibition in rat brain tissue. As to conditions: monoamine reuptake inhibition, means of ≧3 separate determinations. It counts as biochemical.

Amino acid sequences for entries named in this document (tags omitted).
UniProt P23977, whole entry: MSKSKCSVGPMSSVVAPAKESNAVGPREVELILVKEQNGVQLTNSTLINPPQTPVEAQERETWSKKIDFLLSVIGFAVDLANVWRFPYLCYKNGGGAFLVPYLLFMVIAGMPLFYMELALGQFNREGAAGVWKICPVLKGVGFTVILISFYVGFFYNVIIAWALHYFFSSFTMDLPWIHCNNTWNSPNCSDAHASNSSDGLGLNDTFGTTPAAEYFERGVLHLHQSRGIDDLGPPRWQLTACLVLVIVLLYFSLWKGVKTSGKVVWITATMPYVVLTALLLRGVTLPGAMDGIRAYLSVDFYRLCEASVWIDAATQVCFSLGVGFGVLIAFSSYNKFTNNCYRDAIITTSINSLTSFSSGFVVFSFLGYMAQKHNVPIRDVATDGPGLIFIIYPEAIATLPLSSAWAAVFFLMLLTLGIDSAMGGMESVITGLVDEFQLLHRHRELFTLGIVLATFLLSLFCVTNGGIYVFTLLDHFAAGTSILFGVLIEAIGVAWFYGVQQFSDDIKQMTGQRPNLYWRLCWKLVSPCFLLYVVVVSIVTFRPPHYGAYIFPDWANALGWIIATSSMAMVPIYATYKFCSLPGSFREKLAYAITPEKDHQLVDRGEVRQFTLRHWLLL

Turning to `CNC(CC(C)C)C1(c2ccc(Cl)cc2)CCC1` (stereo not shown) [Example 1, N-{1-[1-(4-chlorophenyl)cyclobutyl]-3-methylbutyl}-N-methylamine], the Ki (usually the equilibrium dissociation constant of an inhibitor or competing ligand from its target) in experiment [1] amounted to 0.024 µM.
For `COc1ccc(C(CN(C)C)C2(O)CCCCC2)cc1` (stereo not shown) [Venlafaxine], the Ki is 2.59 µM in experiment [1] and 196 nM in experiment [2].
On to `CC(C)CC(N)C1(c2ccc(Cl)cc2)CCC1` (stereo not shown) [Example 2, 1-[1-(4-chlorophenyl)cyclobutyl]-3-methylbutylamine], for which the affinity in experiment [1], expressed as Ki, was 0.031 µM.

The values are drawn from US6346549B1, “Treatment of pharmacology of drug misuse and other addictive disorders” (Knoll Pharmaceutical Company, priority 1999, dated 2002).
